Data on ten molecules can be found in PubChem BioAssay AID690 (Sanford-Burnham Center for Chemical Genomics, 2007).

Protein sequences, listed by entry. Tags and fused reporters are not part of them.
UniProt P05187, whole entry: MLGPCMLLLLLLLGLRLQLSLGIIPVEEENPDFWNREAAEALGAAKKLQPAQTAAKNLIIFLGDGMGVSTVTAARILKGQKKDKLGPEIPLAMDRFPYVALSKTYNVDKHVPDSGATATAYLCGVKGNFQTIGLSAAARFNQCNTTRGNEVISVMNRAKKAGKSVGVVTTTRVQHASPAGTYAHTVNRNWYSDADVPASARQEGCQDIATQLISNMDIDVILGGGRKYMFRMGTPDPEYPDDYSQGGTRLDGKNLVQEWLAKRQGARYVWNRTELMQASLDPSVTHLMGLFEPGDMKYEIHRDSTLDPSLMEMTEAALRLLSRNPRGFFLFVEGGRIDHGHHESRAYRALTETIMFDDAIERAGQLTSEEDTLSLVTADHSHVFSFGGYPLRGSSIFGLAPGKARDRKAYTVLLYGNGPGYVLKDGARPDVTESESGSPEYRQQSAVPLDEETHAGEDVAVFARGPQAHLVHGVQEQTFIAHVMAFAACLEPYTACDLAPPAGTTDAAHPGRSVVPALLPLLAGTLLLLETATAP

The list shows a part of the results, in another mix than the full data. Measured potencies and affinities stand elsewhere. The source made the active and inactive calls. How the calls were made is not given here.

The target of the test is Alkaline phosphatase, placental type (Homo sapiens) (UniProt P05187). The test can be described thus: PLAP enzyme inhibitors, biochemical, luminescence, HTS (AID 690). The following applies: purified PLAP, luminescent substrate; at 20 µM; hits give high values.
Turning to `Fc1ccccc1NC1CCN(Cc2ccccc2)CC1`, the inhibition was inactive: -63.6%.
The result for `CCC(CO)(C(=O)OC1CN2CCC1CC2)c1ccccc1` (stereo not given) reads inactive: -12.6%; that for `CCOc1ncccc1C(=O)NCC1(N2CCOCC2)CCCCC1`, inactive: -44.8%.
For `N/C(=N\O)c1c(N)no[n+]1[O-]` the value was inactive: 9.6%; for `c1ccc(CN2CCC(Nc3ccccc3)CC2)cc1`, inactive: -67.6%.
For `O=C(NCC1(N2CCOCC2)CCCCC1)c1cc(=O)[nH]c2ccccc12` the value was inactive: -35.8%; for `N#CC1(Nc2ccccc2)CCN(CCc2ccccc2)CC1`, inactive: -17.5%.
`O=C(NCC1(N2CCOCC2)CCCCC1)c1cc2ccccc2o1`: the inhibition is inactive: 0.7%.
For `O=C(OC1CN2CCC1CC2)C1c2ccccc2Oc2ccccc21` (stereo not given), the inhibition was inactive: -31.5%.
`COc1ccc(NC2CCN(CCc3ccccc3)CC2)c(OC)c1`: the inhibition was inactive: -57.6%.
